SMILES strings stand for the structures.

Our source for the IC50 values is patent US10196373B2, “Substituted 2-hydroxy-4-(2-(phenylsulfonamido)acetamido)benzoic acid analogs as inhibitors of STAT protein” (University of Central Florida Research Foundation, Inc., priority 2010, dated 2019).

In assay [1] the test system is OCI-AMI.2 cells. Put plainly: Cell viability, MTS assay. Format: cell-based. Background: Tetrazolium assays rely on reduction of a dye to a coloured formazan, in cell work by metabolically active cells.
The test system of assay [2] is HL60 cells. The assay is described as follows: Cell viability, MTS assay. Format: cell-based. Particulars: Homo sapiens, HL-60, HL60, 72 hours. The protocol: To further test activity of these molecules, a whole-cell study involving cancer lines with known abherrant STAT3 expression was conducted. These human cell lines, including prostate cancer (DU145), breast cancer (MDA468), and promyelocytic leukemia (HL-60) were treated with the peptidomimetics and incubated for 72 hours. Disruption of cell viability was measured by MTS assay and IC50 values for the potential inhibitors was determined. OriginPro 8 (Northampton, Mass.) was used to evaluate EC50 using the dose response curve defined as follows:
[formula] where y is the fraction of death, x is the log of drug concentration. A2 is the top asymptote, A1 is the bottom asymptote, logx0 is the center of the curve, and p is the hill slope.

A word on the IC50: it is the concentration that gives 50% inhibition. A higher IC50 goes with lower potency. Take `CN(CC(=O)N(Cc1ccc(C2CCCCC2)cc1)c1ccc(C(=O)O)c(O)c1)S(=O)(=O)c1c(F)c(F)c(F)c(F)c1F` [Compound 45O, 4-(N-(4-cyclohexylbenzyl)-2-(2,3,4,5,6-pentafluoro-N-methylphenylsulfonamido)acetamido)-2-hydroxybenzoic acid]: the IC50 in assay [1] turned out to be 10.5 ± 6.2 µM; in assay [2], 10.4 ± 1.6 µM.
